## Curated experimental data: melting point values

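The numbers are reported measurements, compiled and curated for the OPERA QSAR suite. One number stands for a compound and property, with no spread given. Method, purity and exact conditions of the single measurements are not given. Where a salt, mixture or single isomer is drawn, the source does not say that exactly this form was tested. Some upstream entries may be estimates or bounds without being marked so.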

Melting points are in °C. "via" names the databases from which the curators took the value.

compound | MP (°C) | via
O=C(O)c1cc(C2CC2)nc2ccccc12 | 209 | OCHEM
O=c1[nH]nc(-c2ccco2)o1 | 112 | OCHEM
NS(=O)(=O)c1ccc(S(=O)(=O)CCCO)s1 | 107 | OCHEM
COC(=O)C(=O)CC(=O)c1ccc(OC)cc1OC | 102 | OCHEM
COC(=O)c1sc(Cl)nc1Cl | 55 | OCHEM
O=C(O)c1ccc2c(=O)[nH][nH]c(=O)c2c1 | 251 | OCHEM
O=C(O)c1cc(=O)c(O)c(C(=O)O)o1 | 270 | PubChem
O=Cc1ccc(-c2nc3ccccc3s2)o1 | 178 | OCHEM
COc1ccc2c(c1)CCCC2=CC[C@@]1(C)C(=O)CC[C@@H]1O | 112 | eChemPortal
NC(=S)CC(=O)NCc1ccccc1 | 114 | OCHEM
COC(=O)c1ccc(S(=O)(=O)Cl)cc1 | 67.5 | OCHEM
FC(F)(F)C(F)(F)C(F)(F)C(F)(F)C(F)(F)C(F)(F)c1ccc(-c2ccc(Br)s2)s1 | 52.5 | ChemicalBook
CC(Oc1ccc(C(C)(C)C)cc1)C(=O)O (centres undefined) | 94 | OCHEM
Cc1ccc(C(=O)O)cc1S(N)(=O)=O | 276 | OCHEM
Cc1c(C(=O)O)cnn1-c1ccc(Br)cc1 | 212 | OCHEM
CC(=O)Nc1cccc(NC(=O)CCl)c1 | 174 | OCHEM
ON=C1c2ccccc2CCc2ccccc21 | 170 | OCHEM
N=c1[nH]c2c(C(F)(F)F)cccc2s1 | 49 | OCHEM
Nc1ccc(C(=O)NCCO)cc1 | 116 | OCHEM
Cc1ccc(C=CC=O)cc1 | 41.5 | PubChem
FC(F)(F)C(F)(F)C(F)(F)C(F)(F)C(F)(F)C(F)(F)C(F)(F)I | -8 | ChemicalBook
Brc1ccc(OCC2CO2)cc1 (centres undefined) | 50 | OCHEM
Nc1ccc(Sc2nc3ccccc3[nH]2)cc1 | 225 | OCHEM
COC(=O)C(=O)CC(=O)c1cccnc1 | 114 | OCHEM
O=C(O)CNC(=O)c1ccc(-c2ccccc2)cc1 | 221 | OCHEM
Nc1nc(-c2ccccn2)cs1 | 136 | OCHEM
Cc1cc(C(=O)O)c(C)n1-c1ccc(F)cc1 | 233 | OCHEM
O=C(O)c1ccccc1OCc1ccc(F)cc1 | 82 | OCHEM
CSCCC(N=C(O)OC(C)(C)C)C(=O)O (centres undefined) | 49.5 | OCHEM
COc1ccc(C(C)=O)cc1CN1CCCCC1 | 55 | OCHEM
NC(=O)c1c(N)sc2c1CCC2 | 159 | OCHEM
CCOc1ccc(C2CCCN2)cc1 (centres undefined) | 17 | OCHEM
O=S(=O)(c1ccc2c(c1)CCN2)N1CCCCC1 | 172 | OCHEM
Cc1cc2ccc3cccc4ccc(c1)c2c34 | 143 | PubChem
Cc1nc2ccccc2c2c(N)c3ccccc3n12 | 201 | OCHEM
Cc1ccc(-c2noc(CC#N)n2)cc1 | 57 | OCHEM
CCCCC(CC)CCc1ccc2ccccc2c1N=Nc1ccc(N=Nc2ccccc2C)cc1C (centres undefined) | -13 | eChemPortal
CCOc1cc(C=O)cc(Cl)c1O | 146 | OCHEM
Cc1cc(C(C)(C)C)cc(C)c1S(=O)(=O)Cl | 114 | OCHEM
O=C(O)COc1ccc(Cl)cc1Br | 124 | OCHEM
CCCNC(=O)C1CNc2ccccc2O1 (centres undefined) | 130 | OCHEM
O=C(CCl)c1ccc(C2CCCCC2)cc1 | 184 | OCHEM

The first 5 entries again:

compound | MP (°C) | via
O=C(O)c1cc(C2CC2)nc2ccccc12 | 209 | OCHEM
O=c1[nH]nc(-c2ccco2)o1 | 112 | OCHEM
NS(=O)(=O)c1ccc(S(=O)(=O)CCCO)s1 | 107 | OCHEM
COC(=O)C(=O)CC(=O)c1ccc(OC)cc1OC | 102 | OCHEM
COC(=O)c1sc(Cl)nc1Cl | 55 | OCHEM

Source: data files of OPERA 2.9 (Mansouri et al.), github.com/kmansouri/OPERA.